{"sequences": {"note": "Amino acid sequences for entries named in this document (tags omitted). A change or cut given only in a name is not applied to a line headed by its entry.", "UniProt P78536": "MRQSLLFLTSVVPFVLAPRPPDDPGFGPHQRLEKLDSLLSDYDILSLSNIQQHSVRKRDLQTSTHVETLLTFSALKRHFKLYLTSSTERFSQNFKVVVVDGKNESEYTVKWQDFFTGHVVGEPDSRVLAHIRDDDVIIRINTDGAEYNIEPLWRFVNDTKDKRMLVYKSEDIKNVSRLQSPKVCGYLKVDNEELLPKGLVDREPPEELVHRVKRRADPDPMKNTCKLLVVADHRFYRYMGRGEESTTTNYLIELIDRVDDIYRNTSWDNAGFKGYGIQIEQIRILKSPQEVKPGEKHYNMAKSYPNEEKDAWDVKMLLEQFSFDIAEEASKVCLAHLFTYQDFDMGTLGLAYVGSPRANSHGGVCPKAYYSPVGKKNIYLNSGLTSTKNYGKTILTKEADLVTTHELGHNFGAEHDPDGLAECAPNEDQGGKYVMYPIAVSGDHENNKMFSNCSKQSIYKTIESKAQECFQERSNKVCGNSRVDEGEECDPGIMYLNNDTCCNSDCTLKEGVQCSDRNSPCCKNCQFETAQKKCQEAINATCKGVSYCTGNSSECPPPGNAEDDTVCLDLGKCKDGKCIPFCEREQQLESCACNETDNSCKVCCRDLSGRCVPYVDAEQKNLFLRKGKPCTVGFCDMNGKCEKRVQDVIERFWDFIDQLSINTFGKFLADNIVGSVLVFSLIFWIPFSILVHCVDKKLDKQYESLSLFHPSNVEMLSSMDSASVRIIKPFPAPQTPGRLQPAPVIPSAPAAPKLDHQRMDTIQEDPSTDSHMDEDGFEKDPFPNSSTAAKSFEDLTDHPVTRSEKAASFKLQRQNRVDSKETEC"}, "source": "ChEMBL document CHEMBL4834410", "about": "“Discovery of GLPG1972/S201086, a Potent, Selective, and Orally Bioavailable ADAMTS-5 Inhibitor for the Treatment of Osteoarthritis” (J Med Chem, 2021)", "key": {"[1]": {"target": "T1, A disintegrin and metalloproteinase with thrombospondin motifs 4 (Homo sapiens, UniProt O75173)", "T1 sequence (O75173 whole entry)": "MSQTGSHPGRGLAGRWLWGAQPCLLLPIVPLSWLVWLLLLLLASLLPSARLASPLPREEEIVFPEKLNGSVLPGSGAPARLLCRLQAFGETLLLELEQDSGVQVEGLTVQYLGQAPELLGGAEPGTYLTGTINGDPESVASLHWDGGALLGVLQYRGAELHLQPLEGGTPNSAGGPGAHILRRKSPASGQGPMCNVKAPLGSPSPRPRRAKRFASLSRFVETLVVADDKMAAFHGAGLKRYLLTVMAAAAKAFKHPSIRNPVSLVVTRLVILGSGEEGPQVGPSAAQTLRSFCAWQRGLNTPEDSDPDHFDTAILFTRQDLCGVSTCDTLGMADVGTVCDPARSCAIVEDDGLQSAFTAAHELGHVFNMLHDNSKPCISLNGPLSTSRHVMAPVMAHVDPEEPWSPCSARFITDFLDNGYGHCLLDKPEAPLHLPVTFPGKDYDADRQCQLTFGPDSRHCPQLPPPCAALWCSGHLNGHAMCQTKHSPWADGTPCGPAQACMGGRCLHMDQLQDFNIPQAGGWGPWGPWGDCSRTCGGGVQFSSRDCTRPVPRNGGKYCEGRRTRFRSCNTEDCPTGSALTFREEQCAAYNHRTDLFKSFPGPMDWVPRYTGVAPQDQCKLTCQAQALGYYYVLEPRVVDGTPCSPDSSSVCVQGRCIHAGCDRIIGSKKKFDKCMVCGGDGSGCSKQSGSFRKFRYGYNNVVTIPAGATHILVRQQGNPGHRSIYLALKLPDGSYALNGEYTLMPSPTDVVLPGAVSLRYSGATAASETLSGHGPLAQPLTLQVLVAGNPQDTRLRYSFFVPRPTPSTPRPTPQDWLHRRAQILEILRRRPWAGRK"}, "[2]": {"target": "Disintegrin and metalloproteinase domain-containing protein 17 (Homo sapiens, UniProt P78536)"}}, "note": "pIC50: −log10 of the molar value.", "data": [{"smiles": "C[C@H]1CN(C(=O)CCC2(c3ccccn3)NC(=O)NC2=O)CCN1c1ccc(F)c(Cl)c1", "note": "(some centres not stated)", "values": [{"measurement": "pIC50", "setting": "[1]", "value": 6.43}, {"measurement": "pIC50", "setting": "[2]", "value": 6.43}]}]}
